Patent US11472877 (Alector, dated 2022)
Where a chain is given by its changes, count along the chain named.

Amino acid sequences for entries named in this document (tags omitted). Chains listed by the source or under a name are the forms on record and can include a tag or linker. Residues count along the entry.
UniProt Q9NP99, 21-234: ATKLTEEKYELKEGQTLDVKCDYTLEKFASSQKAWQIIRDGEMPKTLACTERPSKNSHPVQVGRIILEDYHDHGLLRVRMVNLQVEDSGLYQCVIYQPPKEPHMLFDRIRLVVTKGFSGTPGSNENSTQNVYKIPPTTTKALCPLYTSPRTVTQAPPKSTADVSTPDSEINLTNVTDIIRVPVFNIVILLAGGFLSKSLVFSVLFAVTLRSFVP
UniProt Q9NP99, 21-205 limits assumed, form in doubt: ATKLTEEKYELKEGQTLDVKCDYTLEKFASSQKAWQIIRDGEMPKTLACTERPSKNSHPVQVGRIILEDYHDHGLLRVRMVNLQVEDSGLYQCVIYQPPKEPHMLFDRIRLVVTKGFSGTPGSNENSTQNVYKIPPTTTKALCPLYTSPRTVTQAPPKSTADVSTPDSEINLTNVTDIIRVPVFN

T1: human TREM2 on BWZ cells (human, UniProt Q9NZC2 19-230)
T1 construct: whole, on cells; not tied to the cell line; also called BWZ Human TREM2
T1 sequence (looked up): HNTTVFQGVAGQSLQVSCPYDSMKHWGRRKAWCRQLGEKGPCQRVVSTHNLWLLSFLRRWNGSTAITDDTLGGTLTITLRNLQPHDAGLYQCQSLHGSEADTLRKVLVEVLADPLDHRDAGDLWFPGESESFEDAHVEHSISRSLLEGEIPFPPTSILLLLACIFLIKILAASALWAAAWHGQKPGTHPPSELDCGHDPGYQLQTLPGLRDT

T2: mouse TREM2 on BWZ cells (mouse, UniProt Q99NH8 19-227)
T2 construct: whole, on cells; also called BWZ Mouse TREM2
T2 sequence (looked up): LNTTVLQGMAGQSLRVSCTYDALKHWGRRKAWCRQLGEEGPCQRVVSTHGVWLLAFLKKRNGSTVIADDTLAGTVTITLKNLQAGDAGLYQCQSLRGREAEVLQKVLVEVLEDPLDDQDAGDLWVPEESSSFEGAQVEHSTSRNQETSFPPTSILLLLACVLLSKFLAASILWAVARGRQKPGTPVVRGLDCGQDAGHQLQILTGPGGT

T3: mouse TREM1 on CHO cells (mouse, UniProt Q9JKE2 21-230)
T3 construct: also called CHO-mT1
T3 sequence: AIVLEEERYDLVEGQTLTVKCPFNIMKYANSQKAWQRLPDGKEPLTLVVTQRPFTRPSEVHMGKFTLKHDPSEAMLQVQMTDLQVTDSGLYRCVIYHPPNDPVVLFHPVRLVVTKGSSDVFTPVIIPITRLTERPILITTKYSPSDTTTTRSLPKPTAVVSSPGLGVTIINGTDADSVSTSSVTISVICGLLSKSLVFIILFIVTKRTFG

B1: T1-37 (antibody, IgG1, V domains shown)
VH: QVQLVESGGGVVQPGRSLRLSCAASGFTFSSYGMHWVRQAPGKGLEWVALIWYDGSNKYYADSVKGRFTISRDNSKNTLYLQMNSLRAEDTAVYYCAKGDYLDPLFDYWGQGTLVTVSS
VL: EIVMTQSPATLSVSPGERATLSCRASQSVSSNLAWYQQKPGQAPRLLIYGASTRATGIPARFSGSGSGTEFTLTISSLQSEDFAVYYCQQYAYWPLTFGGGTKVEIK
notes: huIgG1; also called TI-37; ADI-19111
B2: T1-53 (antibody, IgG1, V domains shown)
VH: QVQLVQSGAEVKKPGASVKVSCKASGYTFTSYYIHWVRQAPGQGLEWMGIINPSGGSTSYAQKFQGRVTMTRDTSTSTVYMELSSLRSEDTAVYYCARESGYHVSTAFDIWGQGTMVTVSS
VL: not shown
notes: huIgG1; also called TI-53; ADI-19128
B3: T1-11 (antibody, IgG1, V domains shown)
VH: QLQLQESGPGLVKPSETLSLTCTVSGGSISSSSYYWGWIRQPPGKGLEWIGSIYYSGSTYYNPSLKSRVTISVDTSKNQFSLKLSSVTAADTAVYYCARSGEYGFDLWGRGTLVTVSS
VL: not shown
notes: huIgG1; also called TI-11; ADI-19078
B4: T1-14 (antibody, IgG1, V domains shown)
VH: QVQLVESGGGVVQPGRSLRLSCAASGFTFSSYGMHWVRQAPGKGLEWVAVISYDGSNKYYADSVKGRFTISRDNSKNTLYLQMNSLRAEDTAVYYCARRSSGDYLDVWGQGTMVTVSS
VL: not shown
notes: huIgG1; also called TI-14; ADI-19081
B5: T1-17 (antibody, IgG1, V domains shown)
VH: QVQLQESGPGLVKPSETLSLTCTVSGGSISSYYWSWIRQPPGKGLEWIGSIYYSGSTNYNPSLKSRVTISVDTSKNQFSLKLSSVTAADTAVYYCARGAPGGRHNWFDPWGQGTLVTVSS
VL: DIQMTQSPSSLSASVGDRVTITCQASQDISNYLNWYQQKPGKAPKLLIYDASNLATGVPSRFSGSGSGTDFTFTISSLQPEDIATYYCQQSDIHPRTFGGGTKVEIK
notes: huIgG1; also called TI-17; ADI-19084
B6: T1-18 (antibody, IgG1, V domains shown)
VH: EVQLVESGGGLVQPGRSLRLSCAASGFTFDDYAMHWVRQAPGKGLEWVSGISWNSGDIGYADSVKGRFTISRDNAKNTLYLQMNSLRAEDTALYYCAKGPRMVTHLDVWGQGTMVTVSS
VL: DIQMTQSPSTLSASVGDRVTITCRASQSISSWLAWYQQKPGKAPKLLIYKASSLESGVPSRFSGSGSGTEFTLTISSLQPDDFATYYCQQDSIYPITFGGGTKVEIK
notes: huIgG1; also called TI-18; ADI-19085
B7: T1-21 (antibody, IgG1, V domains shown)
VH: EVQLVESGGGLVQPGGSLRLSCAASGFTFSSYSMNWVRQAPGKGLEWVSYISSSSSTIYYADSVKGRFTISRDNAKNSLYLQMNSLRAEDTAVYYCARGGPLGYGDYKGMDVWGQGTTVTVSS
VL: DIQLTQSPSSLSASVGDRVTITCRASQSISSFLNWYQQKPGKAPKLLIYAASSLQSGVPSRFSGSGSGTDFTLTISSLQPEDFATYYCQQSYSDLTFGGGTKVEIK
notes: huIgG1; also called TI-21; ADI-19088
B8: T1-25 (antibody, IgG1, V domains shown)
VH: B6 VH with D57S, T78S, P100G, R101S, M102R, V103Y, T104S, L106F, V108Y, M114L
VL: EIVLTQSPATLSLSPGERATLSCRASQSVSSYLAWYQQKPGQAPRLLIYDASNRATGIPARFSGSGSGTDFTLTISSLEPEDFAVYYCQQRSVLPLTFGGGTKVEIK
notes: huIgG1; also called TI-25; ADI-19092
B9: T1-27 (antibody, IgG1, V domains shown)
VH: QVQLQESGPGLVKPSQTLSLTCTVSGGSISSGGYYWSWIRQHPGKGLEWIGYIYYSGSTYYNPSLKSRVTISVDTSKNQFSLKLSSVTAADTAVYYCARDSSIAGRATLSFDYWGQGTLVTVSS
VL: DIQMTQSPSSLSASVGDRVTITCRASQSISSYLNWYQQKPGKAPKLLIYAASSLQSGVPSRFSGSGSGTDFTLTISSLQPEDFATYYCQQSFYDPITFGGGTKVEIK
notes: huIgG1; also called TI-27
B10: T1-29 (antibody, IgG1, V domains shown)
VH: QLQLQESGPGLVKPSETLSLTCTVSGGSISSSSYYWGWIRQPPGKGLEWIGSIYYSGSTYYNPSLKSRVTISVDTSKNQFSLKLSSVTAADTAVYYCARDGGGTAQADGAYYYGMDVWGQGTTVTVSS
VL: B8 VL with R91G, S92V, V93N, L94Y, L96F
notes: huIgG1; also called TI-29
B11: T1-30 (antibody, IgG1, V domains shown)
VH: QLQLQESGPGLVKPSETLSLTCTVSGGSISSSSYYWGWIRQPPGKGLEWIGSIYYSGSTYYNPSLKSRVTISVDTSKNQFSLKLSSVTAADTAVYYCARGRKAAAGIDEAEYFQHWGQGTLVTVSS
VL: B7 VL with L4M, L11V, S28G, F32W, N34A, S91V, Y92I, D94F, L95P
notes: huIgG1; also called TI-30
B12: T1-32 (antibody, IgG1, V domains shown)
VH: QLQLQESGPGLVKPSETLSLTCTVSGGSISSSSYYWGWIRQPPGKGLEWIGSIYYSGSTYYNPSLKSRVTISVDTSKNQFSLKLSSVTAADTAVYYCARDAPAVVGESPAFDIWGQGTMVTVSS
VL: B9 VL with S31R, F92L, Y93D, D94L, I96F
notes: huIgG1; also called TI-32
B13: T1-54 (antibody, IgG1, V domains shown)
VH: QVQLVQSGAEVKKPGSSVKVSCKASGGTFSSYAISWVRQAPGQGLEWMGGIIPIFGTANYAQKFQGRVTITADESTSTAYMELSSLRSEDTAVYYCARHWYALGSFDIWGQGTMVTVSS
VL: B8 VL with L4M, A51S, R91H, S92D, L94W, L96I
notes: huIgG1; also called TI-54; ADI-19129
B14: T1-80 (antibody, IgG1, V domains shown)
VH: QVQLVESGGGVVQPGRSLRLSCAASGFTFSSYGMHWVRQAPGKGLEWVALIWYDGSNKYYADSVKGRFTISRDNSKNTLYLQMNSLRAEDTAVYYCARELIVGATGGLTYYYGMDVWGQGTTVTVSS
VL: B1 VL with S30G, Y91D, A92H, Y93D, W94R
notes: huIgG1; also called TI-80; ADI-19159

Assays:
human TREM1 on cells [1] = molecular target: T4, human TREM1 on cells (human, UniProt Q9NP99 21-234); experiment: FACS, human neutrophils
T4 construct: Some reporter cells carry a human TREM1/CD3 zeta fusion instead; also called CHO-huT1; CHO-hT1

human TREM1 = human TREM1 (human, UniProt Q9NP99 21-205, limits assumed); experiment: IgG, monovalent; method and antigen form not stated
human TREM1 on cells [2] = molecular target: T4, human TREM1 on cells; experiment: FACS, CHO human TREM1
human TREM2 on BWZ cells = molecular target: T1, human TREM2 on BWZ cells; experiment: FACS, BWZ human TREM2
mouse TREM2 on BWZ cells = molecular target: T2, mouse TREM2 on BWZ cells; experiment: FACS, BWZ mouse TREM2
mouse TREM1 on CHO cells = molecular target: T3, mouse TREM1 on CHO cells; experiment: FACS, CHO mouse TREM1

Binder | FOB Fold Over Background (human TREM1 on cells [1]) | Kd (human TREM1) | koff (human TREM1) | kon (human TREM1) | FOB Fold Over Background (human TREM1 on cells [2]) | FOB Fold Over Background (human TREM2 on BWZ cells) | FOB Fold Over Background (mouse TREM2 on BWZ cells) | FOB Fold Over Background (mouse TREM1 on CHO cells)
B1 | 2.2 fold | 57.3 nM | 0.0164 s⁻¹ | 285000 M⁻¹ s⁻¹ | 323 fold | 0.7 fold | 0.9 fold | 39.2 fold
B2 | 2.3 fold | 19.1 nM | 0.00156 s⁻¹ | 81600 M⁻¹ s⁻¹ | 459 fold | 0.9 fold | 1.2 fold | 
B3 | 2.3 fold |  |  |  | 414 fold | 0.7 fold | 1.1 fold | 0.7 fold
B4 | 2.3 fold |  |  |  | 418 fold | 0.7 fold | 1.4 fold | 0.8 fold
B5 | 1.3 fold |  |  |  | 264 fold | 0.7 fold | 1.2 fold | 0.7 fold
B6 | 2 fold |  |  |  | 457 fold | 0.5 fold | 0.9 fold | 0.8 fold
B7 | 1.2 fold |  |  |  | 231 fold |  |  | 
B8 | 2.6 fold |  |  |  | 452 fold |  |  | 
B9 | 1.4 fold |  |  |  | 362 fold |  |  | 
B10 | 1.1 fold |  |  |  | 7.9 fold |  |  | 
B11 | 1.1 fold |  |  |  | 19.4 fold |  |  | 
B12 | 1 fold |  |  |  | 27.2 fold |  |  | 
B13 | 3.8 fold |  |  |  | 438 fold |  |  | 
B14 | 1.7 fold |  |  |  | 346 fold |  |  | 
